In PubChem BioAssay AID2129 (The Scripps Research Institute Molecular Screening Center, 2009):
The entries are a selection whose mix differs from that of the whole data set. Activity calls are given as the source filed them.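 How the source made its calls: active means inhibition above the mean of all tested compounds plus 3 SD, cutoff set per campaign (cut at about 30% in these data); inactive means the rest.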

Sequences of proteins named here, by UniProt entry; tags and fusion partners are left off.
UniProt Q07817, whole entry: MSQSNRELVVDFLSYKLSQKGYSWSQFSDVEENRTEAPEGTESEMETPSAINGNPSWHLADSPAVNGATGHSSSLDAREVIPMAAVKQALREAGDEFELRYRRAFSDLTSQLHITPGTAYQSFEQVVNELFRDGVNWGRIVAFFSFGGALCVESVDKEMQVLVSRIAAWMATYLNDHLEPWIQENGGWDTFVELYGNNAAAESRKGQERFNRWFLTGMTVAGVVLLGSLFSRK

Each molecule was assayed against Bcl-2-like protein 1 (Homo sapiens) (UniProt Q07817) (assay: Bcl-xL/Bim BH3 interaction blockers – biochemical, fluorescence polarization, HTS, primary screen (AID 2129;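 further: 0% = DMSO wells and 100% = unlabeled Bim-BH3 peptide competitor; inhibitors lower millipolarization by displacing the labeled peptide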)). Settings: GST-Bcl-xL / FITC-Bim BH3 peptide fluorescence polarization; at 10.9 µM; stronger effect = higher value.

Structure (SMILES)	inhibition
CCc1ccc(OP(C)(=O)O)cc1	inactive: 5.96%
O=C(NC(Sc1ccncn1)C(Cl)(Cl)Cl)c1ccccc1 (configuration not stated)	inactive: 10.8%
